Measurements taken from patent US20250122207A1, “AP2 ASSOCIATED KINASE 1 INHIBITORS AND USES THEREOF” (Satellos Bioscience Inc., priority 2023, published 2025).
Read-outs that look alike come from different tables or passages of the source.

Amino acid sequences for entries named in this document (tags omitted). Residues count along the entry.
UniProt Q9NSY1, 38-345 K320A/K321A: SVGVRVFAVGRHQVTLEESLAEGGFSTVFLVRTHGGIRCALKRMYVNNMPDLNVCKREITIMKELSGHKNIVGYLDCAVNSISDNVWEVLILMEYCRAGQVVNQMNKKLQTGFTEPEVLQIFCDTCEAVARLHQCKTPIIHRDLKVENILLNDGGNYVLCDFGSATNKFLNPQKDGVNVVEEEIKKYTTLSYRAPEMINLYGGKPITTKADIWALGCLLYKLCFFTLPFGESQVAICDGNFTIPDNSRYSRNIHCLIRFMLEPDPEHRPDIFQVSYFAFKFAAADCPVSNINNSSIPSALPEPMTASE

Molecular target: T1, BIKE (amino acids S38-E345) (K320A, K321A) (Homo sapiens, UniProt Q9NSY1, K320A/K321A)
T1 construct: against BIKE (amino acids S38-E345) (K320A, K321A); 6His (N, cleaved yes)
Assay: BIKE pSENs assay
Assay type: biochemical
Procedure: The recombinant proteins were independently expressed in Escherichia coli BL21(DE3) cells cultured in Luria-Bertani (LB) medium until OD600 reached 0.6-0.8, then cooled to 15° C. and supplemented with 0.5 mM isopropyl 1-thio-D-galactopyranoside (IPTG) induce protein expression 16 h. Cells were harvested and resuspended in lysis buffer (50 mM HEPES pH 7.5, 500 mM NaCl, 5 mM imidazole, 5% glycerol, 0.5 mM Tris (2-carboxyethyl) phosphine (TCEP), cOmplete Protease Inhibitor Tablet (Roche)) and lysed by microfludics high pressure homogenizer (UH-06, Union-Biotech). Proteins were purified using […] chromatography (His FF column, Bestchrom) and eluted stepwise in binding buffer with 20-300 mM imidazole. Removal of the hexahistidine tag was performed at 4° C. overnight using recombinant TEV protease and reacted with BirA to obtain the corresponding biotinylated-AAK1, BIKE or GAK proteins. Further separated in the reverse Strep column (Strep-Tactin® XT, IBA). The Biotin elution sample was collected containing untagged biotinylated protein was then purified by Ion-exchange chromatography (Mono Q 10/100 GL, Cytiva) and Size-exclusion chromatography (HiLoad 16/600 Superdex 200 pg, Cytiva). The pure protein was stored in a storage buffer 50 mM HEPES (pH 7.5), 300 mM NaCl, 5% glycerol at −80° C. Protein were characterized by SDS-PAGE, LC-MS and aSEC.
BIKE protein was dissolved at 20 nM in 1× enzyme solution (50 mM HEPES pH7.5, 10 mM MgCl2, 1 mM DTT, 1% glycerol, 0.5 mM EGTA, 0.01% Briji35, 0.02% BSA) and 12.5 ul was incubated with 250 nl DMSO or 250 nl compound in DMSO at 25° C. for 15 min. The reaction was started by addition of 12.5 ul of 30 uM AQT0759 (Assayquant, CSKS-AQT0759B) and 40 uM ATP which were diluted in 1× substrate dilution buffer (50 mM HEPES pH7.5, 10 mM MgCl2, 1 mM DTT, 1% glycerol, 0.5 mM EGTA, 0.01% Briji35).

[1] = class symbols, read-out: BIKE pSENs: IC50

## c1cnc(OC2CC2)c(-c2cnn3ccc(N4CCNCC4)nc23)c1 [Compound I-107, 3-[2-(cyclopropoxy)-3-pyridyl]-5-piperazin-1-yl-pyrazolo[1,5-a]pyrimidine]
  IC50: > 1.5 µM

## COc1ncccc1-c1cnn2ccc(N3CCNCC3)nc12 [Compound I-102-2, 3-(2-methoxy-3-pyridyl)-5-piperazin-1-yl-pyrazolo[1,5-a]pyrimidine]
  IC50: > 1.5 µM

## NC(=O)CN1C[C@@H](OC(=O)N2CCN(c3ccn4ncc(-c5cccnc5OC5CC5)c4n3)CC2)CC1=O [Compound I-28, [(3S)-1-(2-Amino-2-oxo-ethyl)-5-oxo-pyrrolidin-3-yl]4-[3-[2-(cyclopropoxy)-3-pyridyl]pyrazolo[1,5-a]pyrimidin-5-yl]piperazine-1-carboxylate]
[1]
  IC50: 0.051 to 0.15 µM

## CN1C[C@@H](OC(=O)N2CCN(c3ccn4ncc(Br)c4n3)CC2)CC1=O [Compound I-95, [(3S)-1-methyl-5-oxo-pyrrolidin-3-yl]4-(3-bromopyrazolo[1,5-a]pyrimidin-5-yl)piperazine-1-carboxylate]
[1]
  IC50: > 1.5 µM
